The text below walks through data of patent publication US4956461A, “Desamino-aminopterin and -methotrexate” (priority 1989, dated 1990).

The structures appear in SMILES notation.

One assay concerns WI-L2 cells. In words: Growth inhibition of cultured human WI-L2 tumor cells. The note with it: WIL2, read-out: Cells IC50, WI-L2.
In another assay the test system is L1210 cells. As to the kind of experiment: Growth inhibition of cultured murine L1210 tumor cells. The note with it: Mus musculus, L1210, read-out: Cells IC50, L1210.
In assay [1] the test system is DHFR, threonine residue replaced by valine. The note with it: threonine to valine mutant; cited from earlier work.
A further assay concerns carboxypeptidase G1. As to the kind of experiment: Glutamate hydrolysis by carboxypeptidase G1 (HPLC). The note with it: identical conditions.

Turning to `Cc1nc(N)c2nc(CN(C)c3ccc(C(=O)N[C@@H](CCC(=O)O)C(=O)O)cc3)cnc2n1` [Example 4], the IC50 with WI-L2 cells was 330 nM; with L1210 cells, 220 nM.

Take `CN(Cc1cnc2nc(N)nc(N)c2n1)c1ccc(C(=O)N[C@@H](CCC(=O)O)C(=O)O)cc1` [MTX, methotrexate]: the free energy difference in assay [1] is approximately 2 kcal/mol. In addition, the “cleavage by carboxypeptidase G1” value in the assay with carboxypeptidase G1 is recorded as “cleaved to 4-amino-4-deoxy-N^10 -methylpteroic acid”.

Broadly, the IC50 is the concentration that inhibits the measured activity by half.
